Test results published in PMC4079689, “HIV Treatments Reduce Malaria Liver Stage Burden in a Non-Human Primate Model of Malaria Infection at Clinically Relevant Concentrations In Vivo” (PLoS ONE, 2014).

Details: rhesus monkey, in vivo

Q: Which “Toxicity of dosing as used” value does the source give for trimethoprim sulfamethoxazole [TMP-SMX] here?
A: non-toxic
